Antibody variant affinities, Ab-95 light chain, assay 2

Target: peptide PDVDLGDISGINAS, taken from heptad repeat 2 (HR2) of SARS-CoV-2 spike.

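The starting antibody came from a phage panning campaign against this peptide. Library AAYL52 holds single substitutions and randomly drawn double and triple substitutions in the CDRs. AlphaSeq pools MATa yeast showing the antibodies with MATalpha yeast showing the peptide. After mating in shaken culture at 30 °C for 16 h, diploids were selected and their barcode pairs sequenced. The ratio of observed to expected reads was calibrated, replicate by replicate, on BCL2-family standards whose Kd was known from biolayer interferometry. There are three technical replicates.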

Parent: Ab-95, a human scFv built as VH, a 15-residue (Gly4Ser)3 linker, VL. Only the CDRs of the light chain vary.
VH: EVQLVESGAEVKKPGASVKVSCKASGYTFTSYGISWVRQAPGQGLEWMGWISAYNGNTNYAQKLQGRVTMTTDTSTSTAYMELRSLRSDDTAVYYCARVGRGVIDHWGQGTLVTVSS
VL: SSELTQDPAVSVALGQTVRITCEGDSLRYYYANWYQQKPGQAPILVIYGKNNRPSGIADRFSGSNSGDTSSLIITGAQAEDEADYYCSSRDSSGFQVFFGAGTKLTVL

Variants are written as CDR1, CDR2 and CDR3 of the light chain (limits as in the source). Parent: EGDSLRYYYAN, GKNNRPS, SSRDSSGFQVF.
The read-out is the apparent dissociation constant on a log10 scale (nM): the lower, the stronger.
A pair that was not seen in that replicate is written "ND"; this usually means weak binding, but a binder can also be missed.
For reference, the parent read 2.31 as the reference entry and 2.25 as a member of this library.

CDR-L1	CDR-L2	CDR-L3	log10 Kd (nM) by replicate	control signals
EGDSLRYYYAN	GKNPRFS	VSRDSSGFQVF	3.96 4.62 ND	3/9 (4.51)
EGDSLRYYYIF	GKNNRPN	SSRDSSGFQVF	2.87 3.79 3.86	3/9 (4.31)
PGDSLRYYYAN	GKNNRPS	SSVDSIGFQVF	4.18 ND ND	4/9 (3.89)
EGDSLAYYYAN	GKNNRPS	SSRDSSGFQVF	2.35 2.22 1.56	0/9
EYDSLRYYYAN	GKNNPPS	SSQDSSGFQVF	ND ND ND	3/9 (2.92)
EGPFLRYYYAN	GKNNRPS	SSRDESGFQVF	3.86 3.11 3.42	0/9
EGDSLRYYYAN	GKNFSVS	SSRDSSGFQVF	ND ND ND	0/9
EGDSLRYIYAN	GKNNRPS	SSYDSIGFQVF	3.38 3.00 ND	1/9 (4.22)
EGDSLTYYWAN	GKNNRPS	SSRDSAGFQVF	3.43 3.39 ND	4/9 (4.55)
ETDSLIYYYAN	GKNNRPS	SSSDSSGFQVF	3.57 ND 3.98	5/9 (4.14)
EGDWLRYYYAN	GKNNRPS	SSRVSVGFQVF	4.23 3.73 2.98	3/9 (4.32)
EGDSLRYYYAN	GKNNRPS	SSRDWSGFQNA	2.72 2.69 3.00	2/9 (3.89)
EGDSVRYAYAN	GKNNRPS	SSRDSSGFSVF	2.20 2.28 2.07	4/9 (4.22)
EGDSLRYYYAN	GKNNRPS	SSRDSSDFQCF	2.18 2.29 1.96	2/9 (4.15)
EGDSLRYWWAN	GKNNRPS	SSRDSTGFQVF	2.81 3.56 2.66	5/9 (3.97)
EGMSLRPYYAN	GKNNRPS	WSRDSSGFQVF	3.95 4.07 4.56	2/9 (4.59)
EGDSLRYYYAH	GKNNRPS	KIRDSSGFQVF	ND ND 3.13	1/9 (4.00)
EGDSERYYYAN	GKNNRPS	SSRDWIGFQVF	4.20 5.75 4.48	1/9 (3.70)
EGDHLRYYYAN	GKNNRPS	SNRDSSFFQVF	ND ND ND	0/9
EGDSLRYYYAN	GKNNRPS	SSRDSSGKQVF	3.03 2.87 2.61	3/9 (4.41)
EGDSNRYYYHN	GKNNRPS	SSRDSSAFQVF	2.96 3.40 3.18	3/9 (3.78)
EGRSLRYVYAN	GKNNHPS	SSRDSSGFQVF	3.17 3.21 2.85	4/9 (3.70)
EGDSLRYRYAN	GTNNRPS	SSRDSSGFQVF	1.44 1.40 0.99	3/9 (4.12)
EGDSLRYYKAN	GKNNRYS	VSRDSSGFQVF	4.62 4.81 ND	3/9 (3.21)
EGDSLRYYYAN	GKNNRPQ	SSRDSSWFQPF	2.75 2.34 3.12	1/9 (2.96)
EGDSLRKYVAN	GKNNTPS	SSRDSSGFQVF	2.93 3.08 3.07	5/9 (4.14)
EGPSLRYYYAN	YKNNRPS	SSRDSSGFQVC	4.41 ND 3.58	7/9 (4.11)
EGDSLRYYYAN	GKNNRPS	LSRDSSGFQVF	3.95 ND ND	1/9 (4.17)
EGDSFRYYYAT	GKNNRPS	SSRDSSGFVVF	2.23 2.21 2.01	2/9 (2.73)
EGDPLRYYYAN	IKNNRPS	SSRDSSLFQVF	ND 3.84 ND	1/9 (4.95)
EGDSLRYYYAN	WKWNRPS	SSRDSSGFQVF	ND 4.52 3.81	2/9 (4.05)
EGDSLRYYYCN	GKNNRPS	SSRDSSYKQVF	3.18 3.20 3.19	1/9 (4.26)

Top 3 of the variants detected in all replicates, tightest first:

CDR-L1	CDR-L2	CDR-L3	log10 Kd (nM) by replicate	control signals
EGDSLRYRYAN	GTNNRPS	SSRDSSGFQVF	1.44 1.40 0.99	3/9 (4.12)
EGDSLAYYYAN	GKNNRPS	SSRDSSGFQVF	2.35 2.22 1.56	0/9
EGDSLRYYYAN	GKNNRPS	SSRDSSDFQCF	2.18 2.29 1.96	2/9 (4.15)

Nonspecific signal, from three strains lacking the peptide, appeared in 28% of pairings of library AAYL52, centred on 3.91 (5% of these signals below 2.90); values are not corrected for it. For each scFv, signals with the empty controls are counted beside the result, with their mean in brackets.

Values reported by Engelhart et al. 2022, doi:10.1038/s41597-022-01779-4 (FLAb copy).